# Article PMC8284666, “Biochemical characterization of protease activity of Nsp3 from SARS-CoV-2 and its inhibition by nanobodies” (PLoS ONE, 2021)
# What was measured:
# PLpro from SARS-CoV-2 = PLpro from SARS-CoV-2 (Severe acute respiratory syndrome coronavirus 2, UniProt P0DTC1); assay: biochemical; details: read-out: percentage inhibition in the HTS
# PLpro = PLpro (Severe acute respiratory syndrome coronavirus 2, UniProt P0DTC1); details: result in words
structure (smiles),measurement,setting,value
Nc1nc2nc[nH]c2c(=S)[nH]1 [Thioguanine],inhibition at 10 µM,PLpro from SARS-CoV-2,> 50%
same,inhibition of PLpro in the orthogonal gel-based assay,PLpro,could not observe inhibition
